Patent publication US7105520B2, “Phenylalanine derivatives” (Ajinomoto Co., Inc., priority 2000, dated 2006)

By UniProt entry, the sequences of proteins in these tests, tags left out. Residues count along the entry.
UniProt P05556, 21-798 limits assumed: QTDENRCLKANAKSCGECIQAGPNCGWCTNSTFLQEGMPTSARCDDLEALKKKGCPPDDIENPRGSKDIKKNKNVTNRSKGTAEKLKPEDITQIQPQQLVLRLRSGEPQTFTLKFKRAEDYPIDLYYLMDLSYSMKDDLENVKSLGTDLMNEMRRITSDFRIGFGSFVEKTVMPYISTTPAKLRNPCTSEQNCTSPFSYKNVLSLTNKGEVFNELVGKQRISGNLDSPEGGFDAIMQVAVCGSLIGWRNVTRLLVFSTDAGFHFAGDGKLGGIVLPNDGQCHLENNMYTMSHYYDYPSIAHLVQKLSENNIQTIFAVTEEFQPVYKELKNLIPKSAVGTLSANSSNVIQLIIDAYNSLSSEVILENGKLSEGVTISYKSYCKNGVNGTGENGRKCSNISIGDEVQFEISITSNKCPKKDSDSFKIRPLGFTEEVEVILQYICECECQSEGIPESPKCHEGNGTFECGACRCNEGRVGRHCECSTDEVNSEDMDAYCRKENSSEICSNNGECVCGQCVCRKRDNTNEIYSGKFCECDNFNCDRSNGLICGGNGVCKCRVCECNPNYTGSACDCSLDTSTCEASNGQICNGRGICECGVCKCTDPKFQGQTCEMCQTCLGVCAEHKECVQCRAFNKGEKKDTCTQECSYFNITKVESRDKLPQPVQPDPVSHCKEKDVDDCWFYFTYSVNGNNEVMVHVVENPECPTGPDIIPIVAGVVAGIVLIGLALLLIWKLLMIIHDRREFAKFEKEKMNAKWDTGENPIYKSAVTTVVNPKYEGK
UniProt P13612, 34-1032 limits assumed: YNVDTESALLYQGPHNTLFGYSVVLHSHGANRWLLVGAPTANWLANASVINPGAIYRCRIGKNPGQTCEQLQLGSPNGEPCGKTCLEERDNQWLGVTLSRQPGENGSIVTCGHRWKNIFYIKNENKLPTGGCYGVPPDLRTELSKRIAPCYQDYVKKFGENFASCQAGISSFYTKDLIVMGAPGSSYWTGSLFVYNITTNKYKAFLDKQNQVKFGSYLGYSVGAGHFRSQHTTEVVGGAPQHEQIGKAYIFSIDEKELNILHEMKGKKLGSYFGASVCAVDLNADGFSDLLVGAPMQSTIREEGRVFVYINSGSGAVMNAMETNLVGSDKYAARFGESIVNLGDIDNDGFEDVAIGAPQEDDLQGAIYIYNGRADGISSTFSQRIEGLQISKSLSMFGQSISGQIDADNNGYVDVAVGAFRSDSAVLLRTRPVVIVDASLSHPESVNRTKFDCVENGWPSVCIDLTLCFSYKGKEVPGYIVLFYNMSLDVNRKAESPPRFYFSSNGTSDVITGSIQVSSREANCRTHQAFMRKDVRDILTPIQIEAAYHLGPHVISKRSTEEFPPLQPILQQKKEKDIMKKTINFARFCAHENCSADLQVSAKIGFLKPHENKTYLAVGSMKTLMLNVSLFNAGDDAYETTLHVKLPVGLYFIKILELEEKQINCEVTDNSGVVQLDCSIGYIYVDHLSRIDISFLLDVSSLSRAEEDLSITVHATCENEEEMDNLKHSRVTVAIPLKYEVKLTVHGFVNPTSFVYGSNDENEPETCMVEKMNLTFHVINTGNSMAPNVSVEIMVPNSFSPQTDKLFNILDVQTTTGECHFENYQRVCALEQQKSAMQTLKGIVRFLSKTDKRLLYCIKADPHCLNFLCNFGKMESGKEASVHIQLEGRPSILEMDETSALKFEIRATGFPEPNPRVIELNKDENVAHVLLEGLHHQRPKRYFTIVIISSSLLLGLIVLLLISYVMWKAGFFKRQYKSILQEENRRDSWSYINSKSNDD
UniProt P26010, 20-798 limits assumed: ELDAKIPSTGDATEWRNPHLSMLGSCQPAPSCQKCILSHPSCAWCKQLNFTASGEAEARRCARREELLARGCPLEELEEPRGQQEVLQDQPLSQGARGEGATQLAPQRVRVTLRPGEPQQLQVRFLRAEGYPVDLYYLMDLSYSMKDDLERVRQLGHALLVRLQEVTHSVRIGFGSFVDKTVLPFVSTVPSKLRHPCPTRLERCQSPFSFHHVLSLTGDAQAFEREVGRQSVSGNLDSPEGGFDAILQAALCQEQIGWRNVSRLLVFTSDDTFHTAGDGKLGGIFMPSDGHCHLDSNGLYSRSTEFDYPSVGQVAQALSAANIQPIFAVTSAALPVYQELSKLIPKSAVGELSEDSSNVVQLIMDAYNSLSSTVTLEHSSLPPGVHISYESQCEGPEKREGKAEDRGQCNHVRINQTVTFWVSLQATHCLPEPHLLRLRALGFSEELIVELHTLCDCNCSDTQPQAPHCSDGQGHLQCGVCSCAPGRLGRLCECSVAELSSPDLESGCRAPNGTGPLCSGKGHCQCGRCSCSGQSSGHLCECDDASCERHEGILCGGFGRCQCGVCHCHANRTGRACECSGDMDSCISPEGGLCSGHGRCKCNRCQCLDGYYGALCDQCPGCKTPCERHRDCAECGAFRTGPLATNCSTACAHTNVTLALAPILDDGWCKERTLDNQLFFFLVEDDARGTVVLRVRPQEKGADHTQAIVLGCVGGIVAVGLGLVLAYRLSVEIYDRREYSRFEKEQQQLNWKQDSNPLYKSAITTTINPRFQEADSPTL

How the values were obtained:
integrin α 4β1 = integrin α 4β1 (Homo sapiens, UniProt P05556+P13612); test: VCAM antagonistic activity (VCAM-1/α4β1 binding assay), Jurkat cells binding to VCAM-1; conditions: read-out: VCAM-1/α 4 β 1 linking antagonization activity IC50; Jurkat cells (human T cells) binding to recombinant human VCAM-1; room temperature, 30 minutes
Procedure: (Test Example) VCAM Antagonistic Activity (VCAM-1/α4β1 Binding Assay):
The capacity of a test substance antagonistic to the binding of cell strain Jurkat (ATCC TIB-152) of human T cells, known to express integrin α 4β1, to VCAM-1 was determined.
(§1) 100 μl/well of a solution (500 ng/ml) of recombinant human VCAM-1 (R & D systems) solution diluted with buffer A (0.1 M NaHCO3, pH 9.6) was added to a micro titer plate having 96 wells (Nunc Maxisorp). After the incubation at 4° C. overnight, unbound VCAM-1 was removed by washing once with PBS. […]
Jurkat cells were washed with Dulbecco modified Eagle medium (SIGMA, hereinafter referred to as “DMEM”) twice and then incubated in DMEM containing 10 μg/ml of Calcein-AM (Wako Pure Chemical Industries, Ltd.) at 37° C. in dark place for 30 minutes to label with fluorescence. […]
(§2) 50 μl of a test substance of various concentrations obtained by the dilution with the binding buffer was added to the plate. […] The fluorescence quantity of the bound cells remaining in the wells was determined with a fluorescent plate reader (Wallac 1420 ARVO multi-label counter) (filter excitation wave length: 485 nm, emission wave length: 535 nm). […] The binding rate of each test material in various concentrations was determined while the fluorescent strength of the test material-free well was determined to be 100%. […]

integrin α 4β7 = integrin α 4β7 (Homo sapiens, UniProt P13612+P26010); test: VCAM antagonistic activity (VCAM-1/α4β7 binding assay), RPMI-8866 cells binding to VCAM-1; conditions: read-out: VCAM-1/α 4 β 7 linking antagonization activity IC50; RPMI-8866 cells (human B cells) binding to recombinant human VCAM-1; binding buffer containing 4 mM of MnCl2; room temperature, 30 minutes
Procedure: (Test Example) VCAM Antagonistic Activity (VCAM-1/α4β7 Binding Assay):
The capacity of a test substance antagonistic to the binding of lymphoma cell strain RPMI-8866 of human B cells, known to express integrin α 4β7, to VCAM-1 was determined.
as §1
RPMI-8866 cells were incubated in DMEM containing 10 μg/ml of Calcein-AM (Wako Pure Chemical Industries, Ltd.) at 37° C. for 30 minutes to label with fluorescence. […]
as §2

- IC50 (integrin α 4β1): 19 µM
- IC50 (integrin α 4β7): 0.49 µM
Structure (SMILES): O=C(N[C@@H](Cc1ccc(OCc2c(Cl)cccc2Cl)cc1)C(=O)O)c1cc(N2CCCCC2)ccc1[N+](=O)[O-]
